Columns and labels:
Experiment in all cases: Algae control (aquatic weed control) test
Format in all cases: in vivo
Settings in all cases: 2 ppm, 20°C, 7 to 10 days, 0 no effectiveness, 100 complete effectiveness
[1] = test system: Spirolina
[2] = test system: Elodea
[3] = test system: Lemna

## O=S(=O)(C(Cl)CSc1ccc(Cl)cc1)C(Cl)CSc1ccc(Cl)cc1 (stereo not drawn)
[1]
  Percent Aquatic Weed Control: 90%
[2]
  Percent Aquatic Weed Control: 22%
[3]
  Percent Aquatic Weed Control: 22%
